Data as given in patent EP1674580A1, “Method for identifying activators and/or inhibitors of enzyme activity” (F. HOFFMANN-LA ROCHE AG, priority 2004, dated 2006).

Target: T1, recombinant rat insulin degrading enzyme (Rattus norvegicus, UniProt P35559)
T1 sequence (P35559 1-1019): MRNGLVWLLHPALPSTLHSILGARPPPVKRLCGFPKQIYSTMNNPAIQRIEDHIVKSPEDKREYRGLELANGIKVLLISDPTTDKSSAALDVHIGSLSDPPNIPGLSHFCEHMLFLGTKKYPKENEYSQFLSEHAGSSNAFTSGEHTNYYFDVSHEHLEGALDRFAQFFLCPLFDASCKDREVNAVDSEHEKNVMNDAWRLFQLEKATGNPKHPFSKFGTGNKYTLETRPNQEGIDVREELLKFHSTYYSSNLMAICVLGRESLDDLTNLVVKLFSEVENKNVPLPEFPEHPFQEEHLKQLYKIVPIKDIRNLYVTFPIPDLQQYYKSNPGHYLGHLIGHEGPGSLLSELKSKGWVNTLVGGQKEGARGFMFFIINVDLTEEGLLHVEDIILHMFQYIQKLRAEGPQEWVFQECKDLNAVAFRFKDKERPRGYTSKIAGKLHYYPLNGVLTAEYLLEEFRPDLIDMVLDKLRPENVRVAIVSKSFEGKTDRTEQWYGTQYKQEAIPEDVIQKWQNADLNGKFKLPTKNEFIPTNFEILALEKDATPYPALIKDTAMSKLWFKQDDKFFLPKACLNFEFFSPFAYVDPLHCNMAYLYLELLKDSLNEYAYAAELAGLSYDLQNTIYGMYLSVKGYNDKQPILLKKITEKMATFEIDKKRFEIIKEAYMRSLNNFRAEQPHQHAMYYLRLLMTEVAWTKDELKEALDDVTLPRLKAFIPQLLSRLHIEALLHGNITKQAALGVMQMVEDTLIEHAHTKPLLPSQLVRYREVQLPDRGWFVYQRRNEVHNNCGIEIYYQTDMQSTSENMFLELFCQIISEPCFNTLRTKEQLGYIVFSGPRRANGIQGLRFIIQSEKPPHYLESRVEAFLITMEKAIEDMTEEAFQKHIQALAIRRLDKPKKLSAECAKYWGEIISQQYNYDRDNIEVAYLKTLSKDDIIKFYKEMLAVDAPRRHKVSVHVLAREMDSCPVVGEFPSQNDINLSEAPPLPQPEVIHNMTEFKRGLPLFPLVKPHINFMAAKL
Assay: MR121/tryptophan static quenching protease assay with IDE
Settings: screen at 20 µM candidate compound, 10 nM IDE, 100 nM substrate; 100% is the enzyme activity without compound

In the case of `Cc1ccc(C(=O)Nc2ccc(S(=O)(=O)O)c3cc(S(=O)(=O)O)cc(S(=O)(=O)O)c23)cc1NC(=O)c1cccc(NC(=O)Nc2cccc(C(=O)Nc3cc(C(=O)Nc4ccc(S(=O)(=O)O)c5cc(S(=O)(=O)O)cc(S(=O)(=O)O)c45)ccc3C)c2)c1` [Suramin], the “activation of IDE” value is reported as “positive”.
